## CycPeptMPDB entries from one study

Collected by the curators of CycPeptMPDB (Li et al. 2023) from Townsend et al. 2020, doi:10.26434/chemrxiv.13335941.v1.

PAMPA is the parallel artificial membrane permeability assay, which has no cells and reads passive diffusion. Permeability is in 10^-6 cm/s, converted from the database's log10 values; higher is more permeable.

CC(C)C[C@@H]1NC(=O)C[C@H](Cc2ccccc2)NC(=O)[C@@H]2CCCN2C(=O)[C@H](Cc2ccccc2)NC(=O)[C@@H](CC(C)C)N(C)C(=O)[C@@H]2CCCN2C(=O)CN(Cc2ccccc2)C1=O has PAMPA 2.2 × 10^-6 cm/s.
CCCN1CC(=O)N[C@@H](CC(C)C)C(=O)N(C)[C@@H](CC(C)C)C(=O)N2CCC[C@@H]2C(=O)N[C@@H](CC(C)C)C(=O)N[C@@H](Cc2ccccc2)C1=O has PAMPA 6.2 × 10^-6 cm/s.
CC(C)C[C@@H]1NC(=O)[C@@H](C)NC(=O)[C@H]2CCCN2C(=O)[C@H](Cc2ccccc2)NC(=O)[C@@H](CC(C)C)NC(=O)[C@@H]2CCCN2C(=O)[C@@H](CC(C)C)NC1=O has PAMPA 0.31 × 10^-6 cm/s.
CCCN1CC(=O)N[C@@H](CC(C)C)C(=O)N(C)[C@H](CC(C)C)C(=O)N2CCC[C@@H]2C(=O)N(Cc2ccccc2)CC(=O)N[C@@H](Cc2ccccc2)C(=O)N2CCC[C@@H]2C1=O has PAMPA 3 × 10^-6 cm/s.
CC(C)C[C@@H]1C(=O)N[C@@H](Cc2ccccc2)C(=O)N2CCC[C@H]2C(=O)N(C)[C@@H](C)C(=O)N[C@H](CC(C)C)C(=O)N(C)[C@@H](CC(C)C)C(=O)N2CCC[C@@H]2C(=O)N1C has PAMPA 3.4 × 10^-6 cm/s.
CC(C)C[C@@H]1C(=O)N(Cc2ccccc2)CC(=O)N2CCC[C@H]2C(=O)N(C)[C@@H](CC(C)C)C(=O)N[C@@H](Cc2ccccc2)C(=O)N2CCC[C@H]2C(=O)N(C)[C@@H](C)C(=O)N1C has PAMPA 1.4 × 10^-6 cm/s.
CC(C)C[C@@H]1NC(=O)[C@@H]2CCCN2C(=O)[C@@H](CC(C)C)NC(=O)[C@@H](CC(C)C)NC(=O)C[C@H](Cc2ccccc2)NC(=O)[C@@H]2CCCN2C(=O)[C@H](Cc2ccccc2)NC1=O has PAMPA 6.8 × 10^-6 cm/s.
CC(C)C[C@@H]1C(=O)N[C@@H](Cc2ccccc2)C(=O)N2CCC[C@H]2C(=O)N(C)[C@H](C)C(=O)N(C)[C@@H](CC(C)C)C(=O)N(Cc2ccccc2)CC(=O)N2CCC[C@@H]2C(=O)N1C has PAMPA 6 × 10^-6 cm/s.
CC(C)C[C@@H]1C(=O)N2CCC[C@H]2C(=O)N(C)[C@H](CC(C)C)C(=O)N[C@@H](Cc2ccccc2)C(=O)N[C@@H](Cc2ccccc2)CC(=O)N(C)[C@@H](CC(C)C)C(=O)N1C has PAMPA 5.1 × 10^-6 cm/s.
CC(C)C[C@@H]1C(=O)N[C@@H](Cc2ccccc2)C(=O)N2CCC[C@H]2C(=O)N(C)[C@@H](C)C(=O)N(Cc2ccccc2)CC(=O)N(C)[C@@H](CC(C)C)C(=O)N2CCC[C@H]2C(=O)N1C has PAMPA 1.8 × 10^-6 cm/s.
CC(C)C[C@H]1C(=O)N(C)[C@@H](CC(C)C)C(=O)N2CCC[C@@H]2C(=O)N(C)[C@@H](CC(C)C)C(=O)N[C@@H](Cc2ccccc2)C(=O)N2CCC[C@@H]2C(=O)N[C@@H](Cc2ccccc2)CC(=O)N1C has PAMPA 5.5 × 10^-6 cm/s.
CC(C)C[C@@H]1NC(=O)[C@@H]2CCCN2C(=O)[C@@H](CC(C)C)NC(=O)[C@@H](CC(C)C)NC(=O)[C@@H](C)N(C)C(=O)[C@H](Cc2ccccc2)NC1=O has PAMPA 4 × 10^-6 cm/s.
CC(C)C[C@H]1C(=O)N[C@@H](Cc2ccccc2)CC(=O)N2CCC[C@H]2C(=O)N(C)[C@@H](CC(C)C)C(=O)N[C@@H](Cc2ccccc2)C(=O)N[C@H](C)C(=O)N1C has PAMPA 4.8 × 10^-6 cm/s.
CC(C)C[C@H]1C(=O)N(C)[C@@H](CC(C)C)C(=O)N2CCC[C@@H]2C(=O)N(C)[C@@H](CC(C)C)C(=O)N[C@@H](Cc2ccccc2)C(=O)N2CCC[C@H]2C(=O)N[C@@H](Cc2ccccc2)CC(=O)N1C has PAMPA 3.2 × 10^-6 cm/s.
CC(C)C[C@@H]1C(=O)N[C@H](CC(C)C)C(=O)N2CCC[C@H]2C(=O)N(Cc2ccccc2)CC(=O)N[C@@H](Cc2ccccc2)C(=O)N[C@H](C)C(=O)N1C has PAMPA 3 × 10^-6 cm/s.
CCCN1CC(=O)N[C@@H](CC(C)C)C(=O)N(C)[C@@H](CC(C)C)C(=O)N2CCC[C@@H]2C(=O)N[C@H](CC(C)C)C(=O)N[C@@H](Cc2ccccc2)C1=O has PAMPA 2.1 × 10^-6 cm/s.
CC(C)C[C@@H]1C(=O)N[C@@H](Cc2ccccc2)C(=O)N2CCC[C@H]2C(=O)N[C@@H](Cc2ccccc2)CC(=O)N[C@H](CC(C)C)C(=O)N[C@H](CC(C)C)C(=O)N2CCC[C@H]2C(=O)N1C has PAMPA 2.1 × 10^-6 cm/s.
CCCN1CC(=O)N(C)[C@@H](CC(C)C)C(=O)N[C@@H](CC(C)C)C(=O)N2CCC[C@@H]2C(=O)N(C)[C@H](CC(C)C)C(=O)N[C@@H](Cc2ccccc2)C(=O)N2CCC[C@@H]2C1=O has PAMPA 6.5 × 10^-6 cm/s.
CC(C)C[C@@H]1C(=O)N[C@@H](Cc2ccccc2)C(=O)N2CCC[C@H]2C(=O)N(C)[C@@H](C)C(=O)N[C@H](CC(C)C)C(=O)N[C@H](CC(C)C)C(=O)N2CCC[C@H]2C(=O)N1C has PAMPA 1 × 10^-6 cm/s.
CC(C)C[C@@H]1NC(=O)[C@@H]2CCCN2C(=O)[C@H](CC(C)C)N(C)C(=O)[C@@H](CC(C)C)NC(=O)C[C@H](Cc2ccccc2)NC(=O)[C@H](Cc2ccccc2)NC1=O has PAMPA 3.9 × 10^-6 cm/s.
CC(C)C[C@H]1C(=O)N(Cc2ccccc2)CC(=O)N2CCC[C@@H]2C(=O)N(C)[C@@H](CC(C)C)C(=O)N[C@@H](Cc2ccccc2)C(=O)N[C@@H](Cc2ccccc2)CC(=O)N1C has PAMPA 4.3 × 10^-6 cm/s.
CC(C)C[C@@H]1C(=O)N2CCC[C@H]2C(=O)N(Cc2ccccc2)CC(=O)N[C@@H](Cc2ccccc2)C(=O)N2CCC[C@H]2C(=O)N[C@H](C)C(=O)N[C@H](CC(C)C)C(=O)N1C has PAMPA 0.23 × 10^-6 cm/s.
CCCN1CC(=O)N(C)[C@H](CC(C)C)C(=O)N(C)[C@H](CC(C)C)C(=O)N2CCC[C@@H]2C(=O)N(C)[C@H](CC(C)C)C(=O)N[C@@H](Cc2ccccc2)C(=O)N2CCC[C@@H]2C1=O has PAMPA 4.2 × 10^-6 cm/s.
CC(C)C[C@@H]1C(=O)N2CCC[C@H]2C(=O)N[C@H](CC(C)C)C(=O)N[C@@H](Cc2ccccc2)C(=O)N2CCC[C@@H]2C(=O)N(C)[C@H](C)C(=O)N(C)[C@@H](CC(C)C)C(=O)N1C has PAMPA 1.6 × 10^-6 cm/s.

Excerpt, the opening 2 entries:

{"smiles": "CC(C)C[C@@H]1NC(=O)C[C@H](Cc2ccccc2)NC(=O)[C@@H]2CCCN2C(=O)[C@H](Cc2ccccc2)NC(=O)[C@@H](CC(C)C)N(C)C(=O)[C@@H]2CCCN2C(=O)CN(Cc2ccccc2)C1=O", "PAMPA (10^-6 cm/s)": "2.2"}
{"smiles": "CCCN1CC(=O)N[C@@H](CC(C)C)C(=O)N(C)[C@@H](CC(C)C)C(=O)N2CCC[C@@H]2C(=O)N[C@@H](CC(C)C)C(=O)N[C@@H](Cc2ccccc2)C1=O", "PAMPA (10^-6 cm/s)": "6.2"}

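Lipid, pH, incubation time, direction and concentration are not recorded in the data file. Other peptides of the study may be missing here. Peptides that the database sets to -10, its floor, are left out.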